Assay results from paper PMC7048932, “Examining sterically demanding lysine analogs for histone lysine methyltransferase catalysis” (Scientific Reports, 2020).

Tests used:
Format in all cases: biochemical
GLP [1] = target: T1, GLP (Homo sapiens, UniProt Q9H9B1); test: MALDI-TOF MS methylation assay of H3K9 peptides with GLP; conditions: peptide 100 µM, GLP 10 µM, SAM 1 mM, 5 h, 37 °C
T1 construct: His6 (N); made in house; host or cells: E. coli BL21 (DE3)pLysS-rosetta
T1 sequence (Q9H9B1 1-1298): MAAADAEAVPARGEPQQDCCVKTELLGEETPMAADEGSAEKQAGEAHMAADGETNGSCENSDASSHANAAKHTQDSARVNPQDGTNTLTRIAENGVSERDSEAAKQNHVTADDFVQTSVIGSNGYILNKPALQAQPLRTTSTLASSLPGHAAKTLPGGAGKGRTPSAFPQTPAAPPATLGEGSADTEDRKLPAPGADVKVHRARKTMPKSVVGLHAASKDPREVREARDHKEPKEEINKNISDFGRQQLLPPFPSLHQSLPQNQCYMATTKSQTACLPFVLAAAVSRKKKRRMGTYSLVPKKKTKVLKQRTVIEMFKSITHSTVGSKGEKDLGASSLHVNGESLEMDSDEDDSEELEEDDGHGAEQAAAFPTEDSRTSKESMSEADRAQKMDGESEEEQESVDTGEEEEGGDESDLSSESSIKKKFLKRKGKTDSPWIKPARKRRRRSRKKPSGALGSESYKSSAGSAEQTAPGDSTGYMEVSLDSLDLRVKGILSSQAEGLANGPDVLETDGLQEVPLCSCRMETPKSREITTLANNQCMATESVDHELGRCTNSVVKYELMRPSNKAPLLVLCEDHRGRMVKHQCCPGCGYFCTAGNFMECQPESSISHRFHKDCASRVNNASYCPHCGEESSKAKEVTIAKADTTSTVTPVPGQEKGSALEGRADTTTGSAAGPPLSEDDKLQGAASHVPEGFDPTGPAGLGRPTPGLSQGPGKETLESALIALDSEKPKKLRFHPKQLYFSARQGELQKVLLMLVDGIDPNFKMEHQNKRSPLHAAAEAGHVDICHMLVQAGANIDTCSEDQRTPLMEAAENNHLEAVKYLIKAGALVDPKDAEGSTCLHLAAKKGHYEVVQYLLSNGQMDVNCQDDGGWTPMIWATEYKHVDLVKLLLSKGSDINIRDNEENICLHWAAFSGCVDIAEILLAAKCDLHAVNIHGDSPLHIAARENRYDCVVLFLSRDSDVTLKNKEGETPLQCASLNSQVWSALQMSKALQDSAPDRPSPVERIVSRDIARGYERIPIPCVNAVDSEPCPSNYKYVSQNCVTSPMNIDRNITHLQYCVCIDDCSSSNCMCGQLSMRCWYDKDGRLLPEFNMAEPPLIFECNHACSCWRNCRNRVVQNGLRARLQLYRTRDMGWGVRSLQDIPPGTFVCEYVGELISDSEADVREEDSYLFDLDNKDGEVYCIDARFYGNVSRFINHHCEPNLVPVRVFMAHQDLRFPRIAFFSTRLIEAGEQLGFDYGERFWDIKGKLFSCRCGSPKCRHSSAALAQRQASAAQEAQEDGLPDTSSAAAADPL
Procedure: MALDI-MS methyltransferases activity experiments were performed using a Bruker instrument in the reflectron positive mode. For regular methyltransferase standard conditions experiment which carried out in 30 µL total volume, the mixture contains peptide (100 µM), SAM (200 µM), SETD8 or SETD7 (2 µM), in assay buffer 50 mM Tris at optimal pH 8.0. In case of G9a and GLP, similar conditions were used, except (500 µM) of SAM was added to the reaction mixture. […] A 5 µL aliquot of the solution was mixed with 5 µL of MeOH, after which 5 µL of this mixture was mixed with 5 µL of α-cyano-4-hydroxycinamic acid matrix (CHCA, 5 mg/mL in 125:125 µL acetonitrile/water). The spots were placed on a stainless steel MALDI plate (MS 96 target ground steel BC of Bruker, Germany). The mass corresponding to one monomethylation observed as +14 Da, dimethylation observed as +28 Da and trimethylation observed as +42 Da. The enzymatic activity was determined by taking the peak areas of each methylation state, including all isotopes and adducts, and was annotated using FlexAnalysis software (Bruker Daltonics, Germany). […] Methylated peptide substrates were repeated five times and the unmethylated substrates were triplicated. Sequences of the examined peptides are given in (Supplementary Table 1).

GLP [2] = target: T1, GLP; test: NMR assay of GLP-catalyzed methylation of H3K9 peptides; conditions: peptide 400 µM, GLP 8 µM, SAM 2 mM, 50 mM Tris-d11.HCl pD 8.0, 1 h, 37 °C
G9a = target: T2, G9a (Homo sapiens, UniProt Q96KQ7); test: MALDI-TOF MS methylation assay of H3K9 peptides with G9a; conditions: peptide 100 µM, G9a 2 µM, SAM 500 µM, 1 h, 37 °C
T2 construct: His6 (N); made in house; host or cells: E. coli BL21 (DE3)pLysS-rosetta
T2 sequence (Q96KQ7 1-1210): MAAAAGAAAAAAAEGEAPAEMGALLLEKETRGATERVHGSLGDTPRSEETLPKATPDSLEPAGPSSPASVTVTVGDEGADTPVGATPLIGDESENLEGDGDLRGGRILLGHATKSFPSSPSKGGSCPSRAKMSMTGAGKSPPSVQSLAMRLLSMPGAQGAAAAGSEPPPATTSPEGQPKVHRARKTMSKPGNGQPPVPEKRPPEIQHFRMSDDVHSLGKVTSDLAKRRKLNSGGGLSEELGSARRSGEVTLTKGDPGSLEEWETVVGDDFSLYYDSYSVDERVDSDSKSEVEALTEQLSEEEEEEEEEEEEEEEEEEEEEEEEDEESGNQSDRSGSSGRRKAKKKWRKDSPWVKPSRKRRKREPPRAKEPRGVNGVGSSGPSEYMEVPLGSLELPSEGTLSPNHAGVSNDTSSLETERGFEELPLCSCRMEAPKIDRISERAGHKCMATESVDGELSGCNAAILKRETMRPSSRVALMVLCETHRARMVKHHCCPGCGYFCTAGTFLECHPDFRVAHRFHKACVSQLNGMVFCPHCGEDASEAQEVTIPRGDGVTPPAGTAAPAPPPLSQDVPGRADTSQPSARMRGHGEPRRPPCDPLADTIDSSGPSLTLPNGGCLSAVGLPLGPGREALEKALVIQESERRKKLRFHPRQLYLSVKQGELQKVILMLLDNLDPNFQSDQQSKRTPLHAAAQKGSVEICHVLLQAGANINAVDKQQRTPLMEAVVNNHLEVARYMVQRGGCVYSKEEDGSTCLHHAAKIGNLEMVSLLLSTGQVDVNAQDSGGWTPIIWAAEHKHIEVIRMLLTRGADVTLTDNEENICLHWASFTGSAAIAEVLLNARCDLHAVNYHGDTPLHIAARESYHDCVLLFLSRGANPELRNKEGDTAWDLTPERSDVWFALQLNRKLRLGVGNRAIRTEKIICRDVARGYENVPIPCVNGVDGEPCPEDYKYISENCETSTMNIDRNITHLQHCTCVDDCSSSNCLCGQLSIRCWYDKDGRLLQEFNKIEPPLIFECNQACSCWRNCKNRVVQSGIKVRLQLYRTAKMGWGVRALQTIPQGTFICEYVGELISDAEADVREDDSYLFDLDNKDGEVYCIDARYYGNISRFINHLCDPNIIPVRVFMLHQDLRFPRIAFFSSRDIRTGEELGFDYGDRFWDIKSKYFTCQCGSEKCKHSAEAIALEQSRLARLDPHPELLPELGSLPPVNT
Procedure: MALDI-MS methyltransferases activity experiments were performed using a Bruker instrument in the reflectron positive mode. For regular methyltransferase standard conditions experiment which carried out in 30 µL total volume, the mixture contains peptide (100 µM), SAM (200 µM), SETD8 or SETD7 (2 µM), in assay buffer 50 mM Tris at optimal pH 8.0. In case of G9a and GLP, similar conditions were used, except (500 µM) of SAM was added to the reaction mixture. Samples were incubated in an Eppendorf vial 1.5 mL using thermomixer for 1 h at 37 °C. A 5 µL aliquot of the solution was mixed with 5 µL of MeOH, after which 5 µL of this mixture was mixed with 5 µL of α-cyano-4-hydroxycinamic acid matrix (CHCA, 5 mg/mL in 125:125 µL acetonitrile/water). The spots were placed on a stainless steel MALDI plate (MS 96 target ground steel BC of Bruker, Germany). The mass corresponding to one monomethylation observed as +14 Da, dimethylation observed as +28 Da and trimethylation observed as +42 Da. The enzymatic activity was determined by taking the peak areas of each methylation state, including all isotopes and adducts, and was annotated using FlexAnalysis software (Bruker Daltonics, Germany). […] Methylated peptide substrates were repeated five times and the unmethylated substrates were triplicated. Sequences of the examined peptides are given in (Supplementary Table 1).

ARTKQTARK^9STGGKA [H3K9, reference compound]
GLP-catalyzed methylation, result in words, increased GLP/SAM (GLP [1]): major trimethylation | GLP-catalyzed methylation by 1H NMR / 1H-13C HSQC, result in words (GLP [2]): formation of the trimethylated species | G9a-catalyzed methylation, result in words (G9a): trimethylation
